Measured values taken from US20260158017A1, “KIF18A INHIBITOR” (WIGEN BIOMEDICINE TECHNOLOGY (SHANGHAI) CO., LTD., priority 2021, published 2026).

By UniProt entry, the sequences of proteins in these tests, tags left out. Residues count along the entry.
UniProt Q8NI77, 1-467 limits assumed: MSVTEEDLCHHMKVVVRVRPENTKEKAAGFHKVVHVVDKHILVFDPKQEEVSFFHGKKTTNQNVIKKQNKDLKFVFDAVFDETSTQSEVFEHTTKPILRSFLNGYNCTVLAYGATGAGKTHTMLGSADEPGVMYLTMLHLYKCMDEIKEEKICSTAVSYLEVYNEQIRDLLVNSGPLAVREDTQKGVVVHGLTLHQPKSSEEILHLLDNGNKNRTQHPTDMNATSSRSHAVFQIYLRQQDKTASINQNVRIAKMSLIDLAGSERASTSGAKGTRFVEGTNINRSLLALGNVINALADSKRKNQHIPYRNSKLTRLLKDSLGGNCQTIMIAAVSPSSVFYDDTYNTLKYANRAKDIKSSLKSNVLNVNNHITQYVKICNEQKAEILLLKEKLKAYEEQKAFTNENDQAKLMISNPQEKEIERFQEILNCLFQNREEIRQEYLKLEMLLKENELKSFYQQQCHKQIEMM
UniProt P02554, whole entry partner: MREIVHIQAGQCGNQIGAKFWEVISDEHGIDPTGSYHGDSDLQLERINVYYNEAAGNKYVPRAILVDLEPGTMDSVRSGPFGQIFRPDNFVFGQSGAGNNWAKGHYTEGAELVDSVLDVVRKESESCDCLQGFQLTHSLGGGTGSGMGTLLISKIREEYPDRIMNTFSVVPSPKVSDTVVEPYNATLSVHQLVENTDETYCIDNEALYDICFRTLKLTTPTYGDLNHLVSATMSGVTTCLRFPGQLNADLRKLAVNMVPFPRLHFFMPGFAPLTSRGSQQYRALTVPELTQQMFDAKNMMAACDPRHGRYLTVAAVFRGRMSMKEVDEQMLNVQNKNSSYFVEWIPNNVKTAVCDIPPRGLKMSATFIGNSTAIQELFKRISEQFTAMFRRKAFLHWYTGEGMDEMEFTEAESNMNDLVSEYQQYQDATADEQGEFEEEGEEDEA
UniProt P02550, whole entry partner: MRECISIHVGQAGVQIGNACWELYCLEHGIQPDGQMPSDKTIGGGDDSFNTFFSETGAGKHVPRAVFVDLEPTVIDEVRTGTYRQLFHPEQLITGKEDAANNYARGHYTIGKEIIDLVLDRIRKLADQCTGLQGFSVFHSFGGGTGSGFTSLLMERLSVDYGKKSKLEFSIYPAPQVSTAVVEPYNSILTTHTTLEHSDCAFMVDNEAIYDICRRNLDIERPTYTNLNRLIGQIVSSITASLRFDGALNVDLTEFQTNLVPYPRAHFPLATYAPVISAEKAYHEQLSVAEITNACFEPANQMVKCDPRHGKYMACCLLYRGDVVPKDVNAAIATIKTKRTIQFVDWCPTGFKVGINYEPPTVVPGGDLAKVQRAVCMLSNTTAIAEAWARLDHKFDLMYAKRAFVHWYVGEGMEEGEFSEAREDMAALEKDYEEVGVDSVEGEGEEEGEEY

Biological target: Recombinant human KIF18A (1-467His-tagged) protein (Homo sapiens, UniProt Q8NI77)
Experiment: KIF18A enzyme assay (microtubule-stimulated ATPase activity, ADP-Glo)
Details: read-out: Inhibitory activity against KIF18A IC50; 30 nM KIF18A, 75 μM ATP, 30 μg/mL pig microtubules

IC50 [nM] | SMILES
< 100 | O=C(Nc1ccc(OCF)c(N2CC3CC3C2)c1)c1ccc(NS(=O)(=O)CCO)cc1N1CCC2(CC1)CC2 (centres unmarked)
< 100 | C[C@@H]1CN(c2cc(NC(=O)c3ccc(NS(=O)(=O)[C@H](C)CO)cc3N3CCC4(CC3)CC4)ccc2OCF)CCO1
